Chains of the proteins cited; added tags and fusions are not shown.
UniProt Q99685, whole entry: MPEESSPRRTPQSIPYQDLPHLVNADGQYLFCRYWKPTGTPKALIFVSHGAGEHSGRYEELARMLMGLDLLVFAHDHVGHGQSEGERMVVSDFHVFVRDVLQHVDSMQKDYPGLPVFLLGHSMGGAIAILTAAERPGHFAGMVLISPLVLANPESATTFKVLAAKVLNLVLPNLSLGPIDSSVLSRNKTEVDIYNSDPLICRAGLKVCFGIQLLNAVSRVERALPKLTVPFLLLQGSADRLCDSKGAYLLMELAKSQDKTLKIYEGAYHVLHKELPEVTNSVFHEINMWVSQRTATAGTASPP

In patent publication US8697683B2, “Azetidinyl diamides as monoacylglycerol lipase inhibitors” (Janssen Pharmaceutica, NV, priority 2009, dated 2014):

Target: purified wild type MGL (wt-MGLL 6H-11-313) (Homo sapiens, UniProt Q99685)

IC50: 2.79 µM
SMILES: O=C(c1nccs1)N1CCN(C2CN(C(=O)c3cccc4c3CN(c3ncccn3)CC4)C2)CC1
